# Key:
# [1] = tested on: HCMV clinical strain TR-GFP; test: microbe, parasite or virus in culture; assay type: cell-based, Human cytomegalovirus; details: Human betaherpesvirus 5, HFF
# Description: (§1) Drug effects were calculated as a percentage of reduction in GFPU in the presence of each drug concentration comported to the GFPU determined in the absence of drug. The dose-response curves were calculated using the GraphPad Prism 6 (GraphPad Software, USA),
# (§2) In these experiments, the inventors determined the IC50 and IC90 values of respective BET bromodomain inhibitors against HCMV infection using fluorescence reduction assay (FIG. 9; Table 3) s.
# [2] = tested on: HCMV laboratory strain AD169-GFP; test: microbe, parasite or virus in culture; assay type: cell-based, Human cytomegalovirus; details: Human betaherpesvirus 5, AD169, HFF
# Description: as §1, §2
Structure (SMILES),IC50 [1],IC90 [1],IC50 [2],IC90 [2]
"CCNC(=O)C[C@@H]1N=C(c2ccc(Cl)cc2)c2cc(OC)ccc2-n2c(C)nnc21 [I-BET762, 2-[(4S)-6-(4-chlorophenyl)-8-methoxy-1-methyl-4H-[1,2,4]triazolo[4,3-a][1,4]benzodiazepine-4-yl]-N-ethylacetamide]",0.14 µM,0.22 µM,0.21 µM,3.72 µM
CCNC(=O)C[C@H]1N=C(c2ccc(Cl)cc2)c2cc(OC)ccc2-n2c(C)nnc21 [I-BET768],13.4 µM,24.6 µM,403 µM,–
